# Data published in published antibiotic growth screens (doi:10.1038/s41589-023-01349-8).
# Some of the results follow.
# System: A. baumannii ATCC 17978
# Assay: relative growth (fraction of control); higher = less inhibition
# Conditions: 50 µM
row,SMILES,relative growth
1,O=C(Nc1ccc([N+](=O)[O-])cc1Cl)c1cc(Cl)ccc1O,1.06
2,O=c1cc[nH]c(=O)[nH]1,1.2
3,CC(C)C#Cc1ccc2c(c1)O[C@@H](CN(C)C(=O)Cc1ccccn1)[C@H](C)CN([C@@H](C)CO)S2(=O)=O,0.927
4,Cc1cc(O)c(C(=O)N[C@@H](C(=O)N[C@@H]2C(=O)N3C(C(=O)O)=C(CSc4nnnn4C)CSC23)c2ccc(O)cc2)cn1 (stereo not given in full),0.136
5,CN(C)CCCNC(=O)C[C@H]1C=C[C@H](NS(=O)(=O)c2ccccc2)[C@H](CO)O1,1.13
6,O=S1(=O)C[C@H](O)[C@@H](N2CCN(CCO)CC2)C1,1.02
7,COc1nn(C)cc1C(=O)Nc1ccon1,0.958
8,CC(=O)NCCCC[C@@H]1NC(=O)[C@H]2C[C@@H](C(=O)NCCCCCNC(=O)CS)[C@@H](c3ccc(O)cc3)N2C1=O,1.03
9,O=C(N/N=C/[C@H](O)[C@@H](O)[C@H](O)CO)c1ccccc1O,0.867
10,COc1ccc(-c2cc(=O)c3c(OC)c(OC)c(OC)c(OC)c3o2)cc1OC,0.826
11,OC[C@H]1O[C@@H](O[C@@H]2[C@@H](CO)O[C@](O)(CO)[C@H]2O)[C@H](O)[C@@H](O)[C@H]1O,1.05
12,O=C(Cc1ccccn1)NCC[C@@H]1CC[C@H](NC(=O)CN2CCOCC2)[C@H](CO)O1,0.908
13,CC/C=C\C/C=C\C/C=C\C/C=C\C/C=C\C/C=C\CCC(=O)O,0.943
14,O=C(C[C@@H]1CC[C@H](NC(=O)CN2CCOCC2)[C@@H](CO)O1)NCCc1ccccc1,0.899
15,CCCCC(CC)COc1ccc(-c2nc(-c3ccc(OC)cc3)nc(-c3ccc(OCC(CC)CCCC)cc3O)n2)c(O)c1 (stereo not given),1.12
16,Cl.OC(CCN1CCCC1)(c1ccccc1)C1CCCCC1 (stereo not given),0.944
17,CCC(=O)N[C@@H]1C=C[C@H](CC(=O)OC)O[C@@H]1CO,1.14
18,Cc1nnc(Nc2cccc([C@H]3CCCN(C(=O)CN)C3)n2)s1,0.863
19,CC[C@@](C)(Nc1n[nH]c(=O)[nH]c1=O)C(=O)O,1.04
20,CCCNC(=O)N(C)C[C@@H]1Oc2cc(C#Cc3cccc(F)c3)ccc2S(=O)(=O)N([C@@H](C)CO)C[C@@H]1C,0.805
21,Cn1cnc(CCNC(=O)C[C@@H]2CC[C@@H]3[C@H](COC[C@@H](O)CN3C(=O)Nc3ccc(Cl)cc3)O2)c1,0.992
22,CC(C)CCCC(C)C1CCC2C3CC[C@H]4CC(=O)CC[C@]4(C)C3CC[C@]12C (stereo not given in full),0.981
23,C[C@@H]1CN([C@H](C)CO)S(=O)(=O)c2ccc(-c3cncnc3)cc2O[C@@H]1CN(C)C(=O)NC1CCCC1,1.19
24,O=C(C[C@@H]1CC[C@@H]2[C@H](COC[C@@H](O)CN2S(=O)(=O)c2ccc(Cl)cc2)O1)NCCN1CCCCC1,1.19
25,CC1(C)CC[C@]2(C)CC[C@]3(C)C(=CCC4[C@@]5(C)CC[C@H](OC(=O)c6ccccc6)C(C)(C)C5CC[C@]43C)C2C1 (stereo partly drawn) [beta-AMYRIN BENZOATE],1.03
26,[N-]=[N+]=Nc1ccccc1[C@@H]1OC(c2ccc(OCCCO)cc2)=N[C@]1(Cc1ccccc1)C(=O)NC[C@@H](O)CO,0.801
27,C[C@H](CO)N1C[C@H](C)[C@H](CN(C)C(=O)CN(C)C)Oc2cc(-c3ccc(C#N)cc3)ccc2S1(=O)=O,0.989

row,SMILES,relative growth
1,COCC(=O)Nc1ccc2c(c1)C(=O)N(C)[C@H]1CC[C@@H](CC(=O)NCc3ccc(OC)cc3)O[C@@H]1CO2,0.963
2,C[C@H](CO)N1C[C@H](C)[C@@H](CN(C)C(=O)CN2CCOCC2)Oc2ncc(-c3cncnc3)cc2C1=O,1.09
3,Cc1ccc(S(=O)(=O)N[C@@H]2CC[C@H](CC(=O)N3CCC(Cc4ccccc4)CC3)O[C@@H]2CO)cc1,0.6
4,Cn1nnc2cc(C(=O)NC3CC3)ccc21,1.06
5,O=C(C[C@@H]1C[C@H]2c3cc(NS(=O)(=O)c4ccc(F)cc4)ccc3O[C@H]2[C@H](CO)O1)N1CCOCC1,0.813
6,CC(=O)NCCCC[C@@H]1NC(=O)[C@@H]2C[C@H](C(=O)NCCCC[N+](C)(C)C)[C@H](c3cccc(OCCO)c3)N2C1=O,1.13
7,CCCN1C[C@@H](C)[C@H](OC)CN(C)C(=O)c2cc(NS(=O)(=O)c3cn(C)cn3)ccc2OC[C@@H]1C,0.84
8,COc1cccc(-n2cc(C(=O)NO)nn2)c1,1.06
9,Cl.Clc1ccccc1CN1CCc2sccc2C1,1.19
10,COc1cccc([C@@H](N)c2ccccc2)c1,0.966
11,C[C@@H]1CN([C@@H](C)CO)S(=O)(=O)c2ccc(C#CC(C)(C)O)cc2O[C@H]1CN(C)Cc1ccncc1,0.919
12,Cc1noc(C)c1NC(=O)N[C@@H]1CC[C@H](CC(=O)NCCCN(C)C)O[C@@H]1CO,1.11
13,CCCCCCOc1ccccc1C(N)=O,0.893
14,CN1CCN(C(=O)C[C@@H]2CC[C@@H](NC(=O)c3ccc4c(c3)OCO4)[C@H](CO)O2)CC1,0.732
15,Cn1cnc(S(=O)(=O)N[C@H]2C=C[C@H](CC(=O)Nc3ccccc3)O[C@H]2CO)c1,1.05
16,CC(C)(S)[C@H](N)C(=O)O.NCCO,1.33
17,C[C@@H]1COC(=O)[C@H](Cc2ccc(F)cc2)CC=CC[C@@H](CC(=O)N[C@@H](CO)Cc2ccccc2)C(=O)N1,0.778
18,COc1cc2c(cc1OC)CN(C(=O)[C@H]1[C@@H]3C(=O)O[C@@H](c4ccccc4)[C@@H](c4ccccc4)N3[C@@H](c3ccc(O)cc3)[C@]13C(=O)Nc1ccc(C#CC4(O)CCCCCC4)cc13)CC2,0.994
19,C[C@H](NC(=O)C[C@H]1CC[C@H](NC(=O)CN2CCOCC2)[C@@H](CO)O1)c1ccccc1,1.01
20,C[C@H](CO)N1C[C@H](C)[C@@H](CN(C)Cc2ccccc2)Oc2cc(C#CC(C)(C)O)ccc2S1(=O)=O,0.678
21,O=c1[nH][nH]c(=S)n1C1CC1,0.821
22,C[C@@H]1CN([C@H](C)CO)S(=O)(=O)c2ccc(C#Cc3ccccc3)cc2O[C@H]1CN(C)S(=O)(=O)c1ccccc1F,1.03
23,O=C(O)CCSc1n[nH]c(=O)[nH]c1=O,1.1
24,O=C(C[C@H]1CC[C@@H]2[C@H](COC[C@H](O)CN2S(=O)(=O)c2ccc(Cl)cc2)O1)NCCN1CCCC1,0.872
25,COC(=O)[C@H](Cc1ccccc1)N1CC2=C[C@@H]([C@@H](O)CCn3cc(-c4ccc(C(=O)NO)s4)nn3)n3c(=O)n(C)c(=O)n3[C@@H]2[C@@H](C2CC2)O1,1.29
26,O=C(C[C@H]1CC[C@H](NC(=O)c2cnccn2)[C@@H](CO)O1)NCc1ccccc1F,1.04
27,CO[C@H](CCO)[C@H](O)c1ccc(O)c(F)c1,1.04

row,SMILES,relative growth
1,Cl.c1ccc(C2CN3CCSC3=N2)cc1 (stereo not given),0.936
2,NC(=O)c1cc2ccccc2o/c1=N\O,0.473
3,CC[C@H]1OC(=O)[C@H](C)[C@@H](O[C@H]2C[C@@](C)(OC)[C@@H](O)[C@H](C)O2)[C@H](C)[C@@H](O[C@@H]2O[C@H](C)C[C@H](N(C)C)[C@H]2O)[C@](C)(O)C[C@@H](C)CN(C)[C@H](C)[C@@H](O)[C@]1(C)O,0.146
4,O=C(O)/C=C/C(=O)NCc1ccccc1,1.17
5,C=C1C(c2ccc(C)cc2)=CCc2cc(C)cc(C)c21,0.904
6,C/C=C/c1ccc2c(c1)O[C@@H](CN(C)S(=O)(=O)c1ccccc1OC)[C@H](C)CN([C@@H](C)CO)S2(=O)=O,0.997
7,Cn1c(=O)c2c(nc(Sc3nnc(N)s3)n2C)n(C)c1=O,1.06
8,CN[C@H]1CC[C@@H](c2ccc(Cl)c(Cl)c2)c2ccccc21,0.208
9,COc1ccccc1C#Cc1ccc2c(c1)O[C@@H](CN(C)C(C)=O)[C@@H](C)CN([C@@H](C)CO)S2(=O)=O,0.796
10,CO[C@@H]1[C@@H](O[C@@H]2O[C@H](C)C(O[C@H]3C[C@@](C)(O)[C@@H](OC(=O)CC(C)C)[C@H](C)O3)[C@H](N(C)C)[C@H]2O)[C@@H](CC=O)C[C@@H](C)[C@@H](O)/C=C/C=C/C[C@@H](C)OC(=O)C[C@H]1O (stereo not given in full) [KITASAMYCINS [A1 shown]],0.153
11,C[C@@H]1NC(=O)[C@@H]2CCCN2C(=O)[C@H](CC(N)=O)NC(=O)[C@@H]2CSSC[C@H](N)C(=O)N[C@H]3CSSC[C@H](NC1=O)C(=O)N[C@@H]([C@@H](C)O)C(=O)NCC(=O)N[C@H](C(=O)N[C@@H](Cc1ccc(O)cc1)C(=O)O)CSSC[C@H](NC(=O)[C@H](Cc1ccc(O)cc1)NC(=O)[C@H](CCC(=O)O)NC3=O)C(=O)N2,0.959
12,Nc1ccc(S(=O)(=O)Nc2nccs2)cc1,0.968
13,CC(C)CNC(=O)C[C@H]1NCCNC1=O,0.939
14,C=C1C(C2(C)C=CC(=O)C(C)(C)C2CC(=O)OC)CC[C@@]2(C)[C@H](c3ccoc3)OC(=O)C3OC132 (stereo not given in full),1.01
15,CN(C)Cc1cn(CC[C@@H]2CC[C@H](NC(=O)Cc3cccnc3)[C@H](CO)O2)nn1,1.04
16,CCCCCCCCCCCC[C@H](C(=O)O)[C@@H](C)C(=O)O,1.1
17,Cc1ccc(-c2cc(C(F)(F)F)nn2-c2ccc(S(N)(=O)=O)cc2)cc1,0.886
18,O=C1c2ccccc2C(=O)c2c(O)c(O)cc(O)c21,1.06
19,COc1ccc(OC)c(CCNC(=O)CN)c1,1.21
20,NC(=O)c1cc2ccccc2nc1C(N)=O,1.03
21,Nc1ccc(-n2cnnn2)cc1,0.948
22,CCCNC(=O)[C@@H]1c2ccccc2C(=O)N(Cc2cc(C(F)(F)F)cc(C(F)(F)F)c2)[C@H]1c1ccc(CO)cc1,0.897
23,CSc1n[nH]c2nc(=O)cc(N)n12,1
24,O=C(C[C@H]1CC[C@@H]2[C@H](COC[C@H](O)CN2C(=O)c2ccc3c(c2)OCO3)O1)NC1Cc2ccccc2C1,1.01
25,CNC(=N)NCCC[C@@H](N)C(=O)O,1.04
26,CCOC(=O)C1=C(N)C(=O)N(CCCN2CCOCC2)C1,1.21
